Experimental data published in ChEMBL document CHEMBL4715914, “Chemical validation of a druggable site on Hsp27/HSPB1 using in silico solvent mapping and biophysical methods” (Bioorg Med Chem, 2021).

Amino acid sequences for entries named in this document (tags omitted).
UniProt P04792, whole entry: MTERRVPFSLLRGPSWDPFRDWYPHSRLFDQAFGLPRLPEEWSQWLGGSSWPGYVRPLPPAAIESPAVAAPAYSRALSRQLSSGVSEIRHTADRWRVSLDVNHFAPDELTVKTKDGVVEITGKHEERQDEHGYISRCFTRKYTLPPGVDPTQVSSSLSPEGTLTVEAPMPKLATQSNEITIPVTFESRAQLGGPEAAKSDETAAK

molecular target: Heat shock protein beta-1 (Homo sapiens, UniProt P04792); test: Binding affinity to HSP27 (79 to 176 residues) (unknown origin) expressed in Escherichia coli BL21 (DE3) cells by HSQC NMR analysis

SMILES | Kd(app)
O=Cc1ccc(Oc2ccc([N+](=O)[O-])cc2[N+](=O)[O-])cc1 | inactive
O=[N+]([O-])c1ccc(Oc2cccc(F)c2)c([N+](=O)[O-])c1 | inactive
O=[N+]([O-])c1ccc(Sc2ccc(F)cc2F)c([N+](=O)[O-])c1 | inactive
O=[N+]([O-])c1ccc(Oc2ccc(Cl)cc2Cl)c([N+](=O)[O-])c1 | inactive
O=C(Oc1ccc([N+](=O)[O-])cc1[N+](=O)[O-])c1ccc(F)cc1F | inactive
Cc1ccc(Oc2ccc([N+](=O)[O-])cc2[N+](=O)[O-])c(C)c1 | inactive
O=[N+]([O-])c1ccc(Nc2ccc(F)cc2F)c([N+](=O)[O-])c1 | inactive
O=[N+]([O-])c1ccc(Oc2c(F)c(F)cc(F)c2F)c([N+](=O)[O-])c1 | inactive
O=[N+]([O-])c1ccc(Oc2ccc(C(F)(F)F)cc2)c([N+](=O)[O-])c1 | inactive
O=[N+]([O-])c1cc([N+](=O)[O-])c(Oc2ccc(F)cc2F)cc1Oc1ccc(F)cc1F | inactive
O=C(O)c1ccc(Oc2ccc([N+](=O)[O-])cc2[N+](=O)[O-])cc1 | inactive
O=[N+]([O-])c1ccc(Oc2ccc(F)c(F)c2F)c([N+](=O)[O-])c1 | inactive

Calls of active or inactive are those of the source. No cut-off for these calls is given here.
